For one assay, the target named is T1, GluN1/2A NMDA receptors (UniProt P35439+Q12879).
T1 construct: expressed in transfected cells; host or cells: Xenopus oocytes (cRNA injection)
Description: TEVC antagonist block of agonist-induced currents, 1/2A. The assay is classed as cell-based. Particulars: read-out: Memantine IC50. On the procedure: (§1) Electrophysiological responses were measured using a standard two‐microelectrode voltage‐clamp workstation (Warner Instruments model OC‐725C) designed to provide a fast clamp of large cells. The recording buffer contained 116 mM NaCl, 2 mM KCl, 0.3 mM BaCl2, and 5 mM HEPES, pH 7.4. Response magnitude was determined in Xenopus oocytes expressing different NMDA receptor subunits (GluN1/2A, 1/2B, 1/2C, 1/2D, and 1/2A/2B) by the steady plateau response elicited by bath application of different agonist concentrations. […] All data points were obtained from the steady state currents unless stated otherwise. Dose–response relationships were fit to an appropriate curve‐fitting equation using GraphPad Prism‐7. Non‐linear regression was used to calculate EC50, IC50, and fold change or percentage maximal response. Curves were fit using the following equations as performed in the previous studies, [37]: Y=100/1+10^LogEC50−XorY=Bottom+Top−Bottom/1+10^LogEC50−X . Statistical significance was determined at the overall alpha level 0.05, using appropriate statistical methods as described in all figure captions. Technical and biological replicates are explicitly mentioned in each figure legend, as n = X (Y). X represents technical repeats (number of traces) and Y represents biological repeats (number of oocytes or HEK293T cells studied). […]

Protein sequences, listed by entry. Tags and fused reporters are not part of them. Residues count along the entry.
UniProt Q12879, 23-1464: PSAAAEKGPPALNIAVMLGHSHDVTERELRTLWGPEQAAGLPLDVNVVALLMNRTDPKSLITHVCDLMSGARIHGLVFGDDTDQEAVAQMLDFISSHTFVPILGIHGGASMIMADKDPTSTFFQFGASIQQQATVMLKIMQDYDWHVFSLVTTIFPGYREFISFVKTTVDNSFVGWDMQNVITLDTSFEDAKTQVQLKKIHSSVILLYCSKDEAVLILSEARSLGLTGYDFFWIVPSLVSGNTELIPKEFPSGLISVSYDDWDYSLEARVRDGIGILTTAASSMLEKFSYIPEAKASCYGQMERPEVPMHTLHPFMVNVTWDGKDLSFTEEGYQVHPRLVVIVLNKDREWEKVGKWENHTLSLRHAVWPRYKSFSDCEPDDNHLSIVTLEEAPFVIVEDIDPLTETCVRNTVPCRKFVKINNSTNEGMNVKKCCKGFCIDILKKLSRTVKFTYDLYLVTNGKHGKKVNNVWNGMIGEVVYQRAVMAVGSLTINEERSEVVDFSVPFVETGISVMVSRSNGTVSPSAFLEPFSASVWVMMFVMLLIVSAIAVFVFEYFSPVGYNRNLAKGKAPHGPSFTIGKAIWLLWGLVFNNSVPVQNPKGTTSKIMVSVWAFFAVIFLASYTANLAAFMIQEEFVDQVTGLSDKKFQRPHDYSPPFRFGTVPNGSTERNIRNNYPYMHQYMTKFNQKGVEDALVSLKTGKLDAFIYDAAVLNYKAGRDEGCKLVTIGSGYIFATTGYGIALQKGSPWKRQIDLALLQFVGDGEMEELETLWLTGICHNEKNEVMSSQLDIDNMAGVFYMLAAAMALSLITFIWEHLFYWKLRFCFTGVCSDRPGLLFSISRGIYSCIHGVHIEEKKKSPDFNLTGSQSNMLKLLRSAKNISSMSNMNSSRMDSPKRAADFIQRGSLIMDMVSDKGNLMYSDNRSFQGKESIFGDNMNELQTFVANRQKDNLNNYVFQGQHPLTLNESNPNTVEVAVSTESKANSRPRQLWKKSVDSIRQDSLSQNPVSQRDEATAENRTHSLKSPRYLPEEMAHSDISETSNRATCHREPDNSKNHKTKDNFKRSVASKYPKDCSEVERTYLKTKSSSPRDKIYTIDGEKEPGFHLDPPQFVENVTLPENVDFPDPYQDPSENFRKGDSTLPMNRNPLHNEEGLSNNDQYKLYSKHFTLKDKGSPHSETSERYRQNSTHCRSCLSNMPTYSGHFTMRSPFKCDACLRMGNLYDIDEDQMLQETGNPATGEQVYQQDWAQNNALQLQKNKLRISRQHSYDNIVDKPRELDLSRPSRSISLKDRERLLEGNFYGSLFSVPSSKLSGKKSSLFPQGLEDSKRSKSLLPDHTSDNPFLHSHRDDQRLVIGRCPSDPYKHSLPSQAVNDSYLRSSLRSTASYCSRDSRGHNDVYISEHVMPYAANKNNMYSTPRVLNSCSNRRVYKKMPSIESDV
UniProt O15399, 28-1336: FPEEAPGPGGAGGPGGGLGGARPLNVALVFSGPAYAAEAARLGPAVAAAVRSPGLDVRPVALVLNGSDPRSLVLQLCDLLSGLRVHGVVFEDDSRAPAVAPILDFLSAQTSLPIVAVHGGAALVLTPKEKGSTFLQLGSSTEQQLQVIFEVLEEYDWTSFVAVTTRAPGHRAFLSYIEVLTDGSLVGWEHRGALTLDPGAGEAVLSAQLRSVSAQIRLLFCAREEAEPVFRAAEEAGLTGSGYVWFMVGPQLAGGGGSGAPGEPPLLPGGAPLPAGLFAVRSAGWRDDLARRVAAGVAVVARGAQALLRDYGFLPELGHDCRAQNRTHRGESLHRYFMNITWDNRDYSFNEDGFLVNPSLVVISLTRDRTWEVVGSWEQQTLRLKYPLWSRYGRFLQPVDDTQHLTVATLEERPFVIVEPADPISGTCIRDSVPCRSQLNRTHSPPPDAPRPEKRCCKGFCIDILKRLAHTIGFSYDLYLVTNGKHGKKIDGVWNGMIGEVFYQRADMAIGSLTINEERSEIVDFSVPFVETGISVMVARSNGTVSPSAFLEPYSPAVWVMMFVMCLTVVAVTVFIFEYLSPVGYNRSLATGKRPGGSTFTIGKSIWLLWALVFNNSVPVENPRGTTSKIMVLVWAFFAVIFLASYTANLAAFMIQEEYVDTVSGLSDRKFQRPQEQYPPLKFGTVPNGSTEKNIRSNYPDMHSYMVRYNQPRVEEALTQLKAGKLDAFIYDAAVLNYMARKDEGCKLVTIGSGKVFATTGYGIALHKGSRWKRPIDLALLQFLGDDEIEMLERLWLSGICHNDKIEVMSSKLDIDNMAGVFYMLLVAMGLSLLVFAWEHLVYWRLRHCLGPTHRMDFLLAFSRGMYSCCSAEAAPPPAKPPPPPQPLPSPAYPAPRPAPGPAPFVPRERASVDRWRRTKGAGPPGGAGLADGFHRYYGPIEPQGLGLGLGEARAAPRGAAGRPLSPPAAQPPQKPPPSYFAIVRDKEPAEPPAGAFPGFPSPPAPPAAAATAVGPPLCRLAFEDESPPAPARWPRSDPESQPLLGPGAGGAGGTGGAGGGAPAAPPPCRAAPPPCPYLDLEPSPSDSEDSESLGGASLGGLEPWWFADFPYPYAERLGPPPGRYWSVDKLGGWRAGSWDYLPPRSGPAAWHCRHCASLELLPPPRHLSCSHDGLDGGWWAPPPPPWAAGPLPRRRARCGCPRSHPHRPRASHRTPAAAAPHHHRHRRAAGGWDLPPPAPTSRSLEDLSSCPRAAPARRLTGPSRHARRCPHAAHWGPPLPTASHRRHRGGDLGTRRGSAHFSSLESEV

The target in another assay is T2, GluN1/2D NMDA receptors (UniProt O15399+P35439).
T2 construct: host or cells: Xenopus oocytes (cRNA injection)
As to the kind of experiment: TEVC antagonist block of agonist-induced currents, 1/2D. Format: cell-based. Particulars: read-out: Memantine IC50. On the procedure: as §1

Where two headings read alike, the source gives them in different places.

Our source for the IC50 values is publication PMC10245146, “CNS4 causes subtype‐specific changes in agonist efficacy and reversal potential of permeant cations in NMDA receptors” (Pharmacology Research & Perspectives, 2023).

The IC50 is the concentration that gives 50% inhibition. Turning to `CC12CC3CC(C)(C1)CC(N)(C3)C2` [Memantine], the IC50 turned out to be 870 ± 90 nM at GluN1/2A NMDA receptors (with 30 μM CNS4, n = 10 (8), p = .0407); 640 ± 30 nM at GluN1/2A NMDA receptors (without CNS4, n = 11 (10)); 640 ± 150 nM at GluN1/2D NMDA receptors (with 30 μM CNS4, n = 9 (7), p = .3645); 500 ± 60 nM on GluN1/2D NMDA receptors (without CNS4, n = 13(10)).
